The experiment has as its target parathyroid cell Ca^2+ receptor (Bos taurus, UniProt P35384). Briefly: Mobilization of intracellular Ca2+ ([Ca2+]i, fura-2) in bovine parathyroid cells. It counts as cell-based.

Chains of the proteins cited; added tags and fusions are not shown. Residues count along the entry.
UniProt P35384, 20-1085 limits assumed: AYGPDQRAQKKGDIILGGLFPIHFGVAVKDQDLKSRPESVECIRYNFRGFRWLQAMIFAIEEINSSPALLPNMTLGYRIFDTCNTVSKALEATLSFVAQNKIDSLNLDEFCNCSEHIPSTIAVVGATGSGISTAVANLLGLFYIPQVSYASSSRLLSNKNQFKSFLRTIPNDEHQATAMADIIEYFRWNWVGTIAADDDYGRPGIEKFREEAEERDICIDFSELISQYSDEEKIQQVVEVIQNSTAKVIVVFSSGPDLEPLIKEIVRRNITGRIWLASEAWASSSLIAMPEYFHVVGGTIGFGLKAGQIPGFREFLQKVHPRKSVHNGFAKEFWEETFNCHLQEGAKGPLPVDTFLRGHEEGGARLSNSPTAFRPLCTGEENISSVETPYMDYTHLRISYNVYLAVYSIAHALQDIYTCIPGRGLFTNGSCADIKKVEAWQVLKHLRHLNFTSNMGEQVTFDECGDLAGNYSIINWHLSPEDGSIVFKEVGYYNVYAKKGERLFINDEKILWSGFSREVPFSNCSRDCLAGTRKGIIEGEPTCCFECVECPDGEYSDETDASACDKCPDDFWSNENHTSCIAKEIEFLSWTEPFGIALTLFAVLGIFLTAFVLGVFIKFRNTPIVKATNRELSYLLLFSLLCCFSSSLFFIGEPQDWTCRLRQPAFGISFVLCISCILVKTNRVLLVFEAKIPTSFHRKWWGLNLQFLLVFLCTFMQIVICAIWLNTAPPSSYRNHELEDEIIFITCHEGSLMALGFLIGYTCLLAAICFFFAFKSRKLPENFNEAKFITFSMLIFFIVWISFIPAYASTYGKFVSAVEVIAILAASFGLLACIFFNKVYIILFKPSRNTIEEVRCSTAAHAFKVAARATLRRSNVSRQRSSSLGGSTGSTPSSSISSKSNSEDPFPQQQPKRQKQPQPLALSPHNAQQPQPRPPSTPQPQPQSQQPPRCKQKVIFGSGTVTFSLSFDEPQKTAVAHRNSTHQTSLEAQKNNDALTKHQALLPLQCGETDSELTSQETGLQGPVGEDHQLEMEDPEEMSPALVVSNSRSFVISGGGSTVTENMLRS

With `NCCCCCCCCCCCCNC(=O)Cc1ccc(O)cc1O`, the “concentration at which the increase in [Ca2+]i evoked by extracellular Ca2+ is abolished” value is given as “around 500 àM”. Further, under “NPS 021 200 µM, [Ca2+] increased to 2 mM, Fig. 37”, the “effect on the increase in [Ca2+]i elicited by extracellular Ca2+” value was “inhibited the increase in [Ca^2+]i elicited by extracellular Ca^2+”.
Regarding `CCCCCCCCCC1CC(=O)NCCCN(C)CCCCN(C)CCCN1C` (stereo not drawn), the “[Ca2+]i response” value (fura-2-loaded bovine parathyroid cells, 0.5 mM extracellular Ca2+) was “rapid and transient increase in [Ca^2+]i”.

For the origin of these results see patent publication EP0637237B1, “CALCIUM RECEPTOR-ACTIVE MOLECULES” (BRIGHAM AND WOMEN'S HOSPITAL, INC., priority 1993, dated 1994).
